Reference: ChEMBL document CHEMBL1123609, “Synthesis, conformational considerations, and estrogen receptor binding of diastereoisomers and enantiomers of 1-[4-[2-(dimethylamino)ethoxy]phenyl]-1,2-diphenylbutane (dihydrotamoxifen)” (1987)

Chains of the proteins cited; added tags and fusions are not shown.
UniProt Q92731, whole entry, looked up: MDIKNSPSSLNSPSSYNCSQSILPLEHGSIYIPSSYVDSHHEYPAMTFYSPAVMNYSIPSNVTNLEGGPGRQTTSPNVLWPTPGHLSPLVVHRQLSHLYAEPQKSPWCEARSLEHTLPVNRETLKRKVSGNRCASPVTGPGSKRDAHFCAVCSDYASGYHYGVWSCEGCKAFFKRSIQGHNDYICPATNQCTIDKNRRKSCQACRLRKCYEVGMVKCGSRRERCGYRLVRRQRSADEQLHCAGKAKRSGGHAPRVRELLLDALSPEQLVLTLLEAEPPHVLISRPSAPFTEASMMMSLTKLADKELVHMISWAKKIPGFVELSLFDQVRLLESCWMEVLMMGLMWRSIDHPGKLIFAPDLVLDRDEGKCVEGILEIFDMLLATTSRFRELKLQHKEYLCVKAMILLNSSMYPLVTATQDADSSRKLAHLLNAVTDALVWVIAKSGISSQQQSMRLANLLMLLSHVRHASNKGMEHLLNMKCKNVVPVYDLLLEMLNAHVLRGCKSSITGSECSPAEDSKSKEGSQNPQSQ
UniProt P03372, whole entry, looked up: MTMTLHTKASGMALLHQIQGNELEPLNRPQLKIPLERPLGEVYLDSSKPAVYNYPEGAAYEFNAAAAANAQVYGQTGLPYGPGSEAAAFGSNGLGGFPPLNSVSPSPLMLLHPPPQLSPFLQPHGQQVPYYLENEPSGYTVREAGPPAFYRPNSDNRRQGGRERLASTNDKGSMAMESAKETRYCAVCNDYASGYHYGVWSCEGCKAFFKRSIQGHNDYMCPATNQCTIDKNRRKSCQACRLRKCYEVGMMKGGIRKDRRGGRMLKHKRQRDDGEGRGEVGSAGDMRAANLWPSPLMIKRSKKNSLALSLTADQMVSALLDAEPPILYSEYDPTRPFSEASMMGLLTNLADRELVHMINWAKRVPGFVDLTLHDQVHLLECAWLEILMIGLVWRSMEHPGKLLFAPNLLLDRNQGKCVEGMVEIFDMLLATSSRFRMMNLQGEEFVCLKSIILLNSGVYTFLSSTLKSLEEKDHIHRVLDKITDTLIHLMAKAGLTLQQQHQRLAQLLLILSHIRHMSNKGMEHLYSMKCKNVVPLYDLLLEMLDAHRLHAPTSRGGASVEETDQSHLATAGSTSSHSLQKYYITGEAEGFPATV

Target: Estrogen receptor (Homo sapiens) (UniProt Q92731+P03372)
Assay: Relative binding affinity for estrogen receptor of MCF-7 cells
Format: cell-based
Details: MCF7
Summary of the method: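 Whole MCF-7 cells incubated 50 min at 37 °C with 10^-9 M [3H]estradiol, without or with test compound or unlabeled estradiol reference (10^-10 to 10^-6 M). Bound material extracted with EtOH and receptor-bound [3H]estradiol measured. RBA calculated as in the calf uterine cytosol competition assay.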

Relative binding affinity	Structure (SMILES)
0.6	CC/C(=C(\c1ccccc1)c1ccc(O)cc1)c1ccccc1
0.02	CC/C(=C(/c1ccccc1)c1ccc(O)cc1)c1ccccc1
